This is an account of results in ChEMBL document CHEMBL4339224, “Identification of a Strigoterpenoid with Dual Nrf2 and Nf-κB Modulatory Activity” (ACS Med Chem Lett, 2019).

Sequences of proteins named here, by UniProt entry; tags and fusion partners are left off.
UniProt Q04206, whole entry: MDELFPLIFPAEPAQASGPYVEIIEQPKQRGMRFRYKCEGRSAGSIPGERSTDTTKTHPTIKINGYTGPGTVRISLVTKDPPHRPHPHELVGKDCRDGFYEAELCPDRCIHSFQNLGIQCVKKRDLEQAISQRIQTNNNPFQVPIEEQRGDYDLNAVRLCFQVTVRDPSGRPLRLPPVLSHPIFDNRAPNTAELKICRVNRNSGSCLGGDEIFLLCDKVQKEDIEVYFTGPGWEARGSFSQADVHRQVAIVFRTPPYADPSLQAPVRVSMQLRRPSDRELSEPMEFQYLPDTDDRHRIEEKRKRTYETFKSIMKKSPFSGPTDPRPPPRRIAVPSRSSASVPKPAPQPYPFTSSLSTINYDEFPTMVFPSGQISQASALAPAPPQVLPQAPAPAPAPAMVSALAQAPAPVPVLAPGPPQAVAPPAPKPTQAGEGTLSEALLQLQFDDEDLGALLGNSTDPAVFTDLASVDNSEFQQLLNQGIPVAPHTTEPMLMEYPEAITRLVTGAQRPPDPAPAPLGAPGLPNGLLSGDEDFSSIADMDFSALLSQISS

Format in all cases: cell-based
The species entered for assay [1] is Homo sapiens. The experiment in a line: Inhibition of TNFalpha-induced NFkappaB (unknown origin) canonical pathway expressed in mouse NIH3T3-KBF-Luc cells assessed as IkappaB-alpha phosphorylation level at 0.1 uM pre-incubated for 15 mins before TNFalpha stimulation for 6 hrs by Western blot analysis relative to untreated control. On the technique in general: Immunoblotting shows a protein as a band on a membrane.

The species entered for assay [2] is Homo sapiens. Briefly: Inhibition of TNFalpha-induced NFkappaB (unknown origin) canonical pathway expressed in mouse NIH3T3-KBF-Luc cells assessed as IkappaB-alpha phosphorylation level at 1 uM pre-incubated for 15 mins before TNFalpha stimulation for 6 hrs by Western blot analysis relative to untreated control.
The species named for assay [3] is Homo sapiens. Briefly: Inhibition of TNFalpha-induced NFkappaB (unknown origin) canonical pathway expressed in mouse NIH3T3-KBF-Luc cells assessed as IkappaB-alpha phosphorylation level at 5 uM pre-incubated for 15 mins before TNFalpha stimulation for 6 hrs by Western blot analysis relative to untreated control.
The species named for assay [4] is Homo sapiens. Briefly: Inhibition of TNFalpha-induced NFkappaB (unknown origin) canonical pathway expressed in mouse NIH3T3-KBF-Luc cells assessed as IkappaB-alpha phosphorylation level at 10 uM pre-incubated for 15 mins before TNFalpha stimulation for 6 hrs by Western blot analysis relative to untreated control.
Assay [5] is filed under the species Homo sapiens. Briefly: Inhibition of TNFalpha-induced NFkappaB (unknown origin) canonical pathway expressed in mouse NIH3T3-KBF-Luc cells assessed as IkappaB-alpha phosphorylation level at 25 uM pre-incubated for 15 mins before TNFalpha stimulation for 6 hrs by Western blot analysis relative to untreated control.
Assay [6] is filed under the species Homo sapiens. Briefly: Inhibition of TNFalpha-induced NFkappaB (unknown origin) canonical pathway expressed in mouse NIH3T3-KBF-Luc cells assessed as IkappaB-alpha phosphorylation level at 50 uM pre-incubated for 15 mins before TNFalpha stimulation for 6 hrs by Western blot analysis relative to untreated control.
Assay [7] addresses Transcription factor p65 (Homo sapiens) (UniProt Q04206). Briefly: Inhibition of TNFalpha-induced NFkappaB (unknown origin) canonical pathway expressed in mouse NIH3T3-KBF-Luc cells assessed as p65 phosphorylation level at 0.1 uM pre-incubated for 15 mins before TNFalpha stimulation for 6 hrs by Western blot analysis relative to untreated control.
Assay [8] has the same target. The experiment in a line: Inhibition of TNFalpha-induced NFkappaB (unknown origin) canonical pathway expressed in mouse NIH3T3-KBF-Luc cells assessed as p65 phosphorylation level at 5 uM pre-incubated for 15 mins before TNFalpha stimulation for 6 hrs by Western blot analysis relative to untreated control.
The target is the same in assay [9]. The experiment in a line: Inhibition of TNFalpha-induced NFkappaB (unknown origin) canonical pathway expressed in mouse NIH3T3-KBF-Luc cells assessed as p65 phosphorylation level at 10 uM pre-incubated for 15 mins before TNFalpha stimulation for 6 hrs by Western blot analysis relative to untreated control.
For assay [10] the target is unchanged. The experiment in a line: Inhibition of TNFalpha-induced NFkappaB (unknown origin) canonical pathway expressed in mouse NIH3T3-KBF-Luc cells assessed as p65 phosphorylation level at 25 uM pre-incubated for 15 mins before TNFalpha stimulation for 6 hrs by Western blot analysis relative to untreated control.
Assay [11] has the same target. Briefly: Inhibition of TNFalpha-induced NFkappaB (unknown origin) canonical pathway expressed in mouse NIH3T3-KBF-Luc cells assessed as p65 phosphorylation level at 50 uM pre-incubated for 15 mins before TNFalpha stimulation for 6 hrs by Western blot analysis relative to untreated control.
Assay [12] is filed under the species Homo sapiens. Briefly: Inhibition of NF-kappaB (unknown origin) expressed in HEK293T cells co-transfected with the NF-kappaB-Luc plasmid and IKKbeta-HA assessed as reduction in IKKbeta-induced NF-kappaB activation at 0.1 to 50 uM by luciferase reporter gene assay.

Take `CC1=CC(O/C=C2\C[C@]3(C)C(COc4ccc5ccc(=O)oc5c4)[C@](C)(O)CC[C@H]3C(C)(C)C2=O)OC1=O` (some centres not stated): the fold change (FC) came to 4.8 in assay [1]; 4.9 in assay [2]; 5.8 in [3]; 2.5 in assay [4]; 0.4 in assay [5]; 0.9 in [6]. Moreover, the fold change (FC) in assay [7] was 3.2; in [8] it was 6; in assay [9], 5.1; in assay [10], 2.4; in assay [11], 1.1; in assay [12] it was 1.
